# Experimental data taken from article PMC3676450 (Journal of medicinal chemistry, 2013).
# Tested on: oxotremorine-evoked [3H]DA release from rat striatal slices
# Conditions: 1 μM
compound,measurement,value
"CN1[C@@H]2C[C@@H](OC(=O)[C@H](CO)c3ccccc3)C[C@H]1[C@@H]1O[C@@H]12 [Compound 1, scopolamine]",inhibition of oxotremorine-mediated [3H]DA release (in words),completely inhibits
